What was measured:
Homo sapiens = organism: Homo sapiens; test: Selectivity ratio of Ki for human NOP to Ki for human MOP
[1] = target: Nociceptin receptor (Homo sapiens) (UniProt P41146); test: Agonist activity at human NOP expressed in CHO cells membrane assessed as increase in [35S]GTPgammaS binding incubated for 60 mins relative to N/OFQ; conditions: filed as agonist
[2] = target: Mu-type opioid receptor (Homo sapiens) (UniProt P35372); test: Agonist activity at human MOP expressed in CHO cells membrane assessed as increase in [35S]GTPgammaS binding incubated for 60 mins relative to DAMGO
[3] = target: Kappa-type opioid receptor (Homo sapiens) (UniProt P41145); test: Agonist activity at human KOP expressed in CHO cells membrane assessed as increase in [35S]GTPgammaS binding incubated for 60 mins relative to U69593
[4] = target: Delta-type opioid receptor (Homo sapiens) (UniProt P41143); test: Agonist activity at human DOP expressed in CHO cells membrane assessed as increase in [35S]GTPgammaS binding incubated for 60 mins relative to DPDPE

Protein sequences, listed by entry. Tags and fused reporters are not part of them. Lines headed by an entry give the natural chain unless they say otherwise; changes in a name come on top.
UniProt P41146: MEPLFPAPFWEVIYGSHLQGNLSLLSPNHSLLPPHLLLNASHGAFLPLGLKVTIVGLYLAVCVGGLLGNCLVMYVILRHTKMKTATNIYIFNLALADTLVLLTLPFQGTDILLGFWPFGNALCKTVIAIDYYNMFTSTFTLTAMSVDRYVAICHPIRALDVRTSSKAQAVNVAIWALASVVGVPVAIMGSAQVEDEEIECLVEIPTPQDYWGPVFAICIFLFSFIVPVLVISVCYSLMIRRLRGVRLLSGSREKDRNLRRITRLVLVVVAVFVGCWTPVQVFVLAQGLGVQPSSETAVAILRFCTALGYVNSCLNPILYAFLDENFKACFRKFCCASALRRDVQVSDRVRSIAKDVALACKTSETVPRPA
UniProt P35372, whole entry, looked up: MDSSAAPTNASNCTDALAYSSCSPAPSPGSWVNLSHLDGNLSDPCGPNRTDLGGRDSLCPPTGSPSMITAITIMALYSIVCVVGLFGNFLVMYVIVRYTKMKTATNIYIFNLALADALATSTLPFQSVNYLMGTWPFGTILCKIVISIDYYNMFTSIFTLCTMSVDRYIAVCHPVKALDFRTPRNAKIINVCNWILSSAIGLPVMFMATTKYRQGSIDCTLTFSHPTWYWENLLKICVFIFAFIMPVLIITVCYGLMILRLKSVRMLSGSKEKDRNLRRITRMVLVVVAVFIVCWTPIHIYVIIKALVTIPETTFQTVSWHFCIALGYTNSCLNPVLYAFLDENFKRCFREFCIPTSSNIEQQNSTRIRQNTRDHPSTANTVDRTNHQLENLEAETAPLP
UniProt P41145: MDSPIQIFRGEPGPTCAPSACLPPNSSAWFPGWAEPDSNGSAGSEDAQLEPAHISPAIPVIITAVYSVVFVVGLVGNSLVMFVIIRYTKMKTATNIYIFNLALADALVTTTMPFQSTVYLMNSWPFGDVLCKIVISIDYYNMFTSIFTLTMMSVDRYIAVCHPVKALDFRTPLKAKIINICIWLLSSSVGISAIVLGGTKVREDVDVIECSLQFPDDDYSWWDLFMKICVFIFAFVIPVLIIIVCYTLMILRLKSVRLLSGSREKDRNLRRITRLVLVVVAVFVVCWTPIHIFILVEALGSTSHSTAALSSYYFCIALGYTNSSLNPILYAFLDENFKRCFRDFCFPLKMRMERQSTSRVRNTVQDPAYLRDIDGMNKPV
UniProt P41143, whole entry, looked up: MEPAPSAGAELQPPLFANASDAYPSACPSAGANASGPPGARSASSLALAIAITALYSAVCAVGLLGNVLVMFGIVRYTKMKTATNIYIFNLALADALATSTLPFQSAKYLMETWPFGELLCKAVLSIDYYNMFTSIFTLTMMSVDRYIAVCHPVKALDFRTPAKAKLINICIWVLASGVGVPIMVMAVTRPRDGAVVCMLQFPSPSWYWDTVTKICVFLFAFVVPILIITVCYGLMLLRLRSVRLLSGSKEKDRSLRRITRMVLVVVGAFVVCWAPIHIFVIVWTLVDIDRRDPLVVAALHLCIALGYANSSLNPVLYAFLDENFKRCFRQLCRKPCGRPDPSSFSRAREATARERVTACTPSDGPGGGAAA

SMILES | Ratio Ki (Homo sapiens) | Activity [1] | Activity [2] | Activity [3] | Activity [4] | Activity ([4]; filed as agonist) | Activity ([2]; filed as agonist)
CC(C)[C@H]1CC[C@@H](N2CCC(n3ccc4ccccc43)CC2)CC1 | 38.4 |  |  |  |  |  | 
CC(C)[C@H]1CC[C@@H](N2CCC(n3c(CO)cc4ccccc43)CC2)CC1 |  | 102% | 24.6% | 1% | 38.1% |  | 
CC(C)[C@H]1CC[C@@H](N2CCC(n3c(CN4CCS(=O)(=O)CC4)cc4ccccc43)CC2)CC1 |  | 91.2% | 29.8% | 1.3% |  |  | 
CC(C)[C@H]1CC[C@@H](N2CCC(n3c(CCO)cc4ccccc43)CC2)CC1 |  | 87.8% | 34.9% | 6.7% |  |  | 
CC(C)[C@H]1CC[C@@H](N2CCC(n3c(CCN)cc4ccccc43)CC2)CC1 |  | 102% | 39.7% | 21.9% |  |  | 
CC(C)[C@H]1CC[C@@H](N2CCC(n3c(CNC(=O)c4ccc(C(F)(F)F)o4)cc4ccccc43)CC2)CC1 |  | 61.9% | 34.5% |  |  | 42.1% | 
CC(C)[C@H]1CC[C@@H](N2CCC(n3c(CNC(=O)c4cccnc4)cc4ccccc43)CC2)CC1 |  | 85.9% |  | 5.4% |  | 45.7% | 44.2%
CCOC(=O)NCc1cc2ccccc2n1C1CCN([C@H]2CC[C@@H](C(C)C)CC2)CC1 |  | 96.7% |  |  |  | 50.8% | 43.5%
CC(=O)NCc1cc2ccccc2n1C1CCN([C@H]2CC[C@@H](C(C)C)CC2)CC1 |  | 94.1% | 26.2% |  |  | 45.9% | 
CC(C)[C@H]1CC[C@@H](N2CCC(n3c(CNS(C)(=O)=O)cc4ccccc43)CC2)CC1 |  | 84% | 37.6% | 36.1% |  | 48.8% | 

Reference: ChEMBL document CHEMBL5325508, “Discovery and structure-activity relationships (SAR) of a novel class of 2-substituted N-piperidinyl indole-based nociceptin opioid receptor ligands” (2023)
